Read-outs that look alike come from different tables or passages of the source.
Details: for release rate: PAG hydrogel with heparin and heparin-AAD

## VEGF
First three days
  release rate: 7 % VEGF per day
Next 17 days
  release rate: approximately 1 % VEGF per day
cross-linked PAG hydrogel without heparin
  initial burst of drug released during the first two days: around 45%
cross-linked PAG hydrogel without heparin, following 25 days
  sustained release rate: 1 % drug per day
heparin/sepharose gel within the matrix
  drug released during the first two days: Less than 15%
heparin/sepharose gel within the matrix, next 25 days
  sustained release rate: 1 % drug per day
